Source: PubChem BioAssay AID2263 (National Center for Advancing Translational Sciences (NCATS), 2010)
This is a selection; strong and weak results do not stand in their true shares. Records with an inconclusive call do not appear. Activity calls are given as the source filed them. The call rests on the fitted dose curve; in most records, active means well fitted inhibition curve with a large enough effect; inconclusive means small, poorly fitted or top-dose-only effect, or effect the other way; inactive means flat fitted curve, though single readings scatter.

Protein sequences, listed by entry. Tags and fused reporters are not part of them.
UniProt P14618, whole entry, looked up: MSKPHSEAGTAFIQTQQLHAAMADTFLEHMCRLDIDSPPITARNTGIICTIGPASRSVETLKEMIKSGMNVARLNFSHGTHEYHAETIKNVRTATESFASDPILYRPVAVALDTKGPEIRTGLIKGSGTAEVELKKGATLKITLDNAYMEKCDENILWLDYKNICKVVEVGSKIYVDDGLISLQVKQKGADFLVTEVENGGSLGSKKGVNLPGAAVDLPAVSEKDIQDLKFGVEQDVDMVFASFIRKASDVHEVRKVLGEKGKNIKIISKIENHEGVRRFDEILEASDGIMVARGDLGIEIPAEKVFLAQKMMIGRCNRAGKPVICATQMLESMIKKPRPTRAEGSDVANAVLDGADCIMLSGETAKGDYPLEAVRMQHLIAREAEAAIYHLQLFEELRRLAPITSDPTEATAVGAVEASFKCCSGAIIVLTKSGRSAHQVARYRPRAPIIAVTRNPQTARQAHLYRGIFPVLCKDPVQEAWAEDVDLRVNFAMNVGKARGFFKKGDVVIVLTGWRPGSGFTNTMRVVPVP

Each compound was assayed against Pyruvate kinase PKM (Homo sapiens) (UniProt P14618) (assay: Confirmation Concentration-Response Assay for Inhibitors of Human Muscle isoform 2 Pyruvate Kinase). Details: purified hPK-M2, Kinase-Glo ATP luminescence, 1 h.
Description: NIH Chemical Genomics Center [NCGC] Matthew G. Vander Heiden, M.D., Ph.D. [Harvard Medical School, 77 Avenue Louis Pasteur, Boston, MA 02115] MLPCN Grant: 1 R03 MH085679-01 NCGC Assay Overview: Human pyruvate kinase muscle 2 (hPK-M2) enzyme was supplied as a highly purified (>95% pure) preparation from Harvard Medical School and assayed for its ability to generate ATP from ADP using phosphoenolpyruvate (PEP) as a substrate. ATP generation was detected in a coupled reaction by luciferase-mediated luminescence, an ATP-dependent process. Pyruvate kinase substrates, PEP and ADP, were present in the assay at Km and approximately 10-fold below Km respectively. The enzyme was assayed at an intermediate level of activity to screen for both inhibitors and activators.
NCGC Assay Protocol Summary: Three uL of substrate mix (at r.t.) in assay buffer (50 mM Imidazole pH7.2, 50 mM KCl, 7 mM MgCl2, 0.01% Tween 20, 0.05% BSA) was dispensed into white solid bottom 1,536 well microtiter plates so that the final concentrations of substrates in the assay were 0.1 mM ADP and 0.5 mM PEP. 23 nL of compound were delivered by a pin tool and 1 uL of enzyme mix in assay buffer (4 degree Celsius) was added. […] Two uL of detection mix (Kinase-Glo, Promega; at 4 degree Celsius protected from light) was added and luminescence read by a ViewLux (Perkin Elmer) at 5 second exposure/plate. […]

Q: With `Nc1ncnc2c1ncn2C1OC(COP(=O)(O)O)C(O)C1O` (configuration not stated) as the compound, how does the Potency read?
A: active: 6.51 µM

Q: `Nc1ncnc2c1ncn2[C@@H]1O[C@H](COP(=O)(O)O)[C@@H](O)[C@H]1O` was tested. Which Potency did it give?
A: active: 6.51 µM
